# OPERA 2.9 data: properties

Source: data files of OPERA 2.9 (Mansouri et al.), github.com/kmansouri/OPERA.

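These are experimental values that the OPERA curators gathered from public databases to train and test their QSAR models. The files give a single number for a compound and property, which may rest on several reports. How each value was measured is not recorded, so precision varies. The measured form (salt, isomer or mixture) is not always the one drawn. Some upstream entries may be estimates or bounds without being marked so.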

The melting point is given in degrees Celsius. The boiling point refers to atmospheric pressure (760 mmHg), by the definition of the set. logP is the log10 of the octanol-water partition coefficient; higher is more lipophilic. Water solubility is log10 of mol/L, nominally at 25 °C; higher is more soluble. Vapor pressure is log10 of mmHg; the set covers 15 to 30 °C, mostly 20 to 25 °C. The Henry's law constant is on a log10 scale in atm·m3/mol (set defined at 25 °C); higher favours air over water. The unbound fraction in human plasma runs from 0 (all bound) to 1 (all free).

* O=COCc1ccccc1: logP (octanol/water) 1.79; log S -1.673 (log10 mol/L); log VP 0.16 (log10 mmHg)
* CC1(C)O[C@@H]2[C@@H](CO[C@@]3(COS(N)(=O)=O)OC(C)(C)O[C@@H]23)O1: log S -1.539 (log10 mol/L); plasma fu 0.85
* CCC(=O)C1C(=O)CC(C(=O)O)CC1=O (configuration not stated): log S -2.429 (log10 mol/L); log VP -7.001 (log10 mmHg); log H -9.722 (log10 atm·m3/mol)
* Cc1cc(O)cc2c1O[C@](C)(CCC[C@H](C)CCC[C@H](C)CCCC(C)C)CC2: MP -2.5 °C; log VP -7.923 (log10 mmHg)
* C=CCCCCCCCCCCCCCCCC: log S -9.823 (log10 mol/L); log H -0.608 (log10 atm·m3/mol)
* CC1(C)CC(O)CC(C)(C)N1: logP (octanol/water) 0.24; log VP -2.71 (log10 mmHg)
* CCN(Cc1cccc(S(=O)(=O)[O-])c1)c1ccc(C(=C2C=CC(=[N+](CC)Cc3cccc(S(=O)(=O)[O-])c3)C=C2)c2ccccc2)cc1.[Na+]: MP 255 °C; log S -1.362 (log10 mol/L)
* CCCCCCCCCC(C)/C=C(/C(C)=O)C(=O)OCC (stereo partly drawn): bp 306 °C; log S -6.87 (log10 mol/L); log VP -4.824 (log10 mmHg)
* Cc1ncc(C[n+]2csc(CCO)c2C)c(N)n1.[Cl-]: logP (octanol/water) -3.93; log S 0.221 (log10 mol/L); plasma fu 0.08
* COc1ccc(C(=O)Nc2ccc(C(N)=O)cc2)cc1[N+](=O)[O-]: MP 240 °C; logP (octanol/water) 1.75; log S -4.654 (log10 mol/L)
* COS(=O)(=O)[O-].C[N+](C)(C)c1ccc2ccc(O)cc2c1: MP 141.2 °C; logP (octanol/water) 0.018; log VP -8.253 (log10 mmHg)
* CCCCCCCCCCCCCCCC(=O)OCCOc1cccc(OCCOC(=O)CCCCCCCCCCCCCCC)c1: MP 83.58 °C; log S -8.13 (log10 mol/L); log VP -9.011 (log10 mmHg)
* CC[N+](CC)(CC(=O)Nc1c(C)cccc1C)Cc1ccccc1.O=C([O-])c1ccccc1: logP (octanol/water) 2.131; log S -1.02 (log10 mol/L)
* O=C(CCc1ccc(O)cc1)Nc1ccccc1C(=O)O: MP 189.5 °C; logP (octanol/water) 3.05; log S -3.451 (log10 mol/L)
* CCO/C=C1\N=C(c2ccccc2)OC1=O: log S -2.072 (log10 mol/L); log VP -5.194 (log10 mmHg)
* Cc1cc(Cl)cc2c1C(=O)/C(=C1/Sc3cc(Cl)cc(C)c3C1=O)S2: MP 378 °C; logP (octanol/water) 2.06
* CC(=O)OCC(=O)[C@@]12OC3(CCCC3)O[C@@H]1C[C@H]1[C@@H]3CCC4=CC(=O)C=C[C@]4(C)[C@@]3(F)[C@@H](O)C[C@@]12C: logP (octanol/water) 2.3; log S -4.812 (log10 mol/L)
* C=C(C)C(=O)OCCOc1ccccc1: logP (octanol/water) 3.073; log S -2.953 (log10 mol/L); log VP -2.682 (log10 mmHg)
* CC(=O)Nc1ccc(S(N)(=O)=O)cc1: log S -1.61 (log10 mol/L); log VP -7.094 (log10 mmHg)
* CC(C)C=NCC1(C)CC(N=CC(C)C)CC(C)(C)C1 (configuration not stated): MP -73 °C; logP (octanol/water) 5.2; log VP -2.907 (log10 mmHg)
* C=C(C)C(=O)OC(C(F)(F)F)C(F)(F)F: MP -80.15 °C; bp 98.92 °C; log VP 1.565 (log10 mmHg)
* CCCCCCCCCCCCCCCCCC[N+](C)(C)C.[Cl-]: log S -3.851 (log10 mol/L); log VP -7.932 (log10 mmHg)
* C=CC(=O)OCCOC: bp 160 °C; log VP 0.324 (log10 mmHg)
* Nc1cc([N+](=O)[O-])cc(C(=O)O)c1O: MP 227 °C; logP (octanol/water) 0.76; log S -2.491 (log10 mol/L)
* C=CCCCCCCCCCCCCCCCCCCCCCCCC: bp 403.2 °C; log VP -5.666 (log10 mmHg)
* COC(F)(F)C(Cl)Cl: log S -1.407 (log10 mol/L); log VP 1.364 (log10 mmHg)